Laboratory results reported in paper PMC10798254 (Indian Journal of Nuclear Medicine : IJNM : The Official …, 2023).

Assay: Biodistribution and dosimetry of 177Lu-DOTA-Trastuzumab
Format: in vivo, HER-2 positive breast carcinoma patients

For ^177Lu-DOTA-Trastuzumab, the “mean absorbed dose, WB” value (OLINDA EXM) was 0.2412 ± 0.0295 mGy/Mbq, the “mean absorbed dose, heart” value (OLINDA EXM) was 1.4719 ± 0.602 mGy/Mbq and the “mean absorbed dose, kidneys” value (OLINDA EXM) was 1.4232 ± 0.364 mGy/Mbq. The “mean absorbed dose, liver” value (OLINDA EXM) was 1.0702 ± 0.731 mGy/Mbq, the “mean absorbed dose, red marrow” value (OLINDA EXM) was 0.1485 ± 0.0213 mGy/Mbq and the “mean absorbed dose, spleen” value (OLINDA EXM) was 1.4114 ± 0.462 mGy/Mbq. The “absorbed radiation dose for tumor” value (ORIGIN software) was 1.78E+2, the “mean absorbed dose, heart” value (ORIGIN software) was 1.8971 ± 0.713 mGy/Mbq and the “mean absorbed dose, kidneys” value (ORIGIN software) was 0.7943 ± 0.235 mGy/Mbq. The “mean absorbed dose, liver” value (ORIGIN software) was 0.5741 ± 0.333 mGy/Mbq, the “mean absorbed dose, spleen” value (ORIGIN software) was 0.8096 ± 0.224 mGy/Mbq and the “mean absorbed dose, WB” value (ORIGIN software, fifth of five values) was 0.09619 ± 0.0144 mGy/Mbq.
